From patent US20260226128A1, “Capped Peptides and Methods for Using the Same” (The Board of Trustees of the Leland Stanford Junior …, priority 2023, published 2026)

Experiment: Half-life of peptides incubated in mouse plasma, levels by LC-MS
Settings: 10 µM peptide, 37° C.
Procedure: FIG. 4. […] (A) Schematic and annotation of the primary amino acid sequence for full-length mouse TAC1 preproprotein and its cleavage products. […] For (B), N=2 per concentration; for (C), N=3 per condition. For (B,C), data are shown as means±SEM. * P<0.05, ** P<0.01 versus control by Student's t-test.
Half-life calculations of CAP-TAC1 in plasma. 10 µM of either synthetic CAP-TAC1 or SP was incubated with 100 μl of mouse plasma. Samples were incubated at 37° C. for 0, 10, 30, 60, or 90 minutes (N=3 for each time point). At the indicated time point, 1 μl of HALT protease inhibitor was immediately added, and plasma was boiled and prepared using the peptidomics workflow described above. […] Half-lives were calculated using an exponential decay fit.

substance P [reference compound]
peptide level in mouse plasma after 90 min (90 min): undetectable
t1/2 of degradation in mouse plasma (exponential decay fit): 8.4 min
